Measured values taken from US8877754B2, “Compounds, pharmaceutical compositions and uses thereof” (Boehringer Ingelheim International GmbH, priority 2010, dated 2014).
pIC50: −log10 of the molar value.

Protein sequences, listed by entry. Tags and fused reporters are not part of them. Residues count along the entry.
UniProt O00763, 129-2458 limits assumed: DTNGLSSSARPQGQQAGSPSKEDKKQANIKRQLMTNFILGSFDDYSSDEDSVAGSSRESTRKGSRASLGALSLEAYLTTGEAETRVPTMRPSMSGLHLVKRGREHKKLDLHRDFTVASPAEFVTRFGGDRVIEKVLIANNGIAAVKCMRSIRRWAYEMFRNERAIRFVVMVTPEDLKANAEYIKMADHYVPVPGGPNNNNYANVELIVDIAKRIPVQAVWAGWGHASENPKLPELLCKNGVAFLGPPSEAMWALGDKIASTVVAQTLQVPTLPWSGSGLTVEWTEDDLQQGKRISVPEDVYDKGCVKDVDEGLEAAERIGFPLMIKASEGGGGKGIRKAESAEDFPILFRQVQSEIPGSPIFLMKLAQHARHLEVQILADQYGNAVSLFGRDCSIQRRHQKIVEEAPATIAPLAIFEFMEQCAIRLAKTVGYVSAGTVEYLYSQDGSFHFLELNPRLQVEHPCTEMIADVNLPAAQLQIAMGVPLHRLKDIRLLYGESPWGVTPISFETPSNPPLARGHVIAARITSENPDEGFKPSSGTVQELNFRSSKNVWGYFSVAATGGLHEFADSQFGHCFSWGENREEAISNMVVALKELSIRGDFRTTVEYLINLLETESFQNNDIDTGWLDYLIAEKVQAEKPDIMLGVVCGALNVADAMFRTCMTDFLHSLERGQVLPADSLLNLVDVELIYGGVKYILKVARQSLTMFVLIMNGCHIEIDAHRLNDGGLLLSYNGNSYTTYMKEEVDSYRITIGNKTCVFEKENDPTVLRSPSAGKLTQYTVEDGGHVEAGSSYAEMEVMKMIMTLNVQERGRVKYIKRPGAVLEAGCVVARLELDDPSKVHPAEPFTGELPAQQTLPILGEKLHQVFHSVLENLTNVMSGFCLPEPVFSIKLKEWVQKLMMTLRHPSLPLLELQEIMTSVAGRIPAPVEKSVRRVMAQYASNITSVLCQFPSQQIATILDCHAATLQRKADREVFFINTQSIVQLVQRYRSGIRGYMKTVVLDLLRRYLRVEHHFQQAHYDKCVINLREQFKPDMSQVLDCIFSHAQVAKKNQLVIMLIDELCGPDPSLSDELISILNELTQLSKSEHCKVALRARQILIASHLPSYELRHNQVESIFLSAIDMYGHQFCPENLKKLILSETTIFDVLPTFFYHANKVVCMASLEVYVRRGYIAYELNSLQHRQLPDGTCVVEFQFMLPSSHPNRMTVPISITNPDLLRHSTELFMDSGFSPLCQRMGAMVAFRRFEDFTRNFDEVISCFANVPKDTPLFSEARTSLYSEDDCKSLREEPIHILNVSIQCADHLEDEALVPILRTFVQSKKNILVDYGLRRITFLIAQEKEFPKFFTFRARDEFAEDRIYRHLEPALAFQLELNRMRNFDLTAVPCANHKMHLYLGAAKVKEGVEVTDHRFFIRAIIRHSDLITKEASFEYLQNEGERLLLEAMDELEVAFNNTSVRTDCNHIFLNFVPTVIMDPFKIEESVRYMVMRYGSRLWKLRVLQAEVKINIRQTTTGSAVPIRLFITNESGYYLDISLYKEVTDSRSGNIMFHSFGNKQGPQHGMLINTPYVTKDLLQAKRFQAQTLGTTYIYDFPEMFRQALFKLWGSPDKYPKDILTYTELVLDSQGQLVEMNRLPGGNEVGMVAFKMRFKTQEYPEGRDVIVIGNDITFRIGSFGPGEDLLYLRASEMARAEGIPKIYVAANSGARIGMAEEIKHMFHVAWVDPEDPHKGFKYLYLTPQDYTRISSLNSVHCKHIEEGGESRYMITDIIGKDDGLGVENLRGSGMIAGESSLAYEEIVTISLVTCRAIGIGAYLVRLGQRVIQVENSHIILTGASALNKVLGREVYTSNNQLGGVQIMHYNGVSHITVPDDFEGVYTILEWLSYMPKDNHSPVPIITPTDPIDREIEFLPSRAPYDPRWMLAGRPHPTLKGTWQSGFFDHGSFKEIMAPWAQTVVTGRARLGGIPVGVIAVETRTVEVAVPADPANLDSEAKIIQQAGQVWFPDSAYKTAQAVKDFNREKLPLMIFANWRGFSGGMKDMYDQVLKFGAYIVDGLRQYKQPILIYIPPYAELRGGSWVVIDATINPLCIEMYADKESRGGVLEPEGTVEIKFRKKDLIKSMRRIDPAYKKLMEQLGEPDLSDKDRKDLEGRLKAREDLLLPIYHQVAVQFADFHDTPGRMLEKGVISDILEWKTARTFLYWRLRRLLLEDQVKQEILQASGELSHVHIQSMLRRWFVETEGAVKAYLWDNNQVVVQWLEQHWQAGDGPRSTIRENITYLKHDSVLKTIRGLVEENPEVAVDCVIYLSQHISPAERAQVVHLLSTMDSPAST

What follows are compounds tested against human ACC2 (Homo sapiens, UniProt O00763) (assay: ACC2 assay, spectrophotometric 384 well assay (NADH-linked, coupled lactate dehydrogenase/pyruvate kinase)). Conditions: hACC2 construct lacking the 128 N-terminal amino acids; 25° C., 340 nm, 15 minutes.
Description: Spectrophotometric 384 Well Assay
Malonyl CoA formation by acetyl CoA carboxylases is stoichometrically linked to the consumption of ATP. ACC2 activity is measured in a NADH-linked kinetic method measuring ADP generated during the ACC reaction using a coupled lactate dehydrogenase/pyruvate kinase reaction.
For biological testing, a human ACC2 construct which lacks the 128 amino acids at the N-terminus for increased solubility (nt 385-6966 in Genbank entry AJ575592) is cloned. The protein is then expressed in insect cells using a baculoviral expression system. Protein purification is performed by anion exchange.
All compounds are dissolved in dimethyl sulfoxide (DMSO) to a concentration of 10 mM.
Assay reactions are then carried out in 384-well plates, with hACC2 in an appropriate dilution and at final assay concentrations (f.c.) of 100 mM Tris (pH 7.5), 10 mM trisodium citrate, 25 mM KHCO3, 10 mM MgCl2, 0.5 mg/mL BSA, 3.75 mM reduced L-glutathione, 15 U/mL lactate dehydrogenase, 0.5 mM phosphoenolpyruvate, 15 U/mL pyruvate kinase, compounds at different concentrations at final DMSO concentrations of 1%.
The enzymatic reaction is then started by addition of a mixture of NADH, acetyl Coenzyme A (both 200 μM f.c.) and ATP (500 uM f.c.). The decrease of the optical density (slope S) is then determined at 25° C. at a wavelength of 340 nm over 15 minutes in a spectrophotometric reader.
Each assay microtiter plate contains wells with vehicle instead of compound as controls for the non-inhibited enzyme (100% CTL; ‘HIGH’) and wells without acetyl-CoA as controls for non-specific NADH degradation (0% CTL; ‘LOW’). The slope S is used for calculation of % CTL=(S(compound)−S(‘LOW’))/(S(‘HIGH’)—S(‘LOW’))*100. Compounds will give values between 100% CTL (no inhibition) and 0% CTL (complete inhibition).
For IC50 value determination, the sample slope in the presence of the test compound after subtraction of the low controls (S(compound)−S(‘LOW’)) are used. […]

| pIC50 | Structure (SMILES) |
| --- | --- |
| 6.21 | CCNC(=O)C(C)c1ccc(C#Cc2ccc(Oc3ccccc3)nc2)cc1 (stereo not drawn) |
| 6.06 | CCNC(=O)C(C)Cc1ccc(C#Cc2ccc(OCC)cc2)cc1 (stereo not drawn) |
| 7.10 | CCNC(=O)C(C)c1ccc(C#Cc2ccc(OCc3ccoc3)cc2)cc1 (stereo not drawn) |
